Among the data in ChEMBL document CHEMBL3272031, “Inhibition of dihydrofolate reductase. Structure-activity correlations of quinazolines” (J Med Chem, 1976) are log(1/C) values, retold here.

This assay addresses Dihydrofolate reductase (Rattus norvegicus) (UniProt Q920D2).
For the compound `Nc1nc(N)c2c(Cl)c(Cl)ccc2n1`, the log(1/C) amounted to 6.7.
In the case of `N#Cc1ccc2nc(N)nc(N)c2c1`, the log(1/C) was 4.92.
`Nc1nc(N)c2cc(CNC(=O)Cc3ccc(Cl)c(Cl)c3)ccc2n1` had a log(1/C) of 5.82.
In the case of `Cc1c(NC(=O)Cc2ccc(Cl)cc2)ccc2nc(N)nc(N)c12`, the log(1/C) amounted to 7.48.
The value for `Nc1nc(N)c2ccccc2n1` was 4.66; that for `Nc1nc(N)c2c(Cl)c(NC(=O)Cc3ccc(Br)cc3)ccc2n1` was 7.89; that for `Nc1nc(N)c2c(CSc3ccc4ccccc4c3)cccc2n1` was 8.
